Our source for the inhibition values is ChEMBL document CHEMBL1137168, “Tubulin inhibitors. Synthesis and biological activity of HTI-286 analogs with B-segment heterosubstituents” (Bioorg Med Chem Lett, 2004).

This assay deals with Tubulin. Briefly: Compound was evaluated for the inhibition of MAP-rich tubulin polymerisation at 0.3 uM.

`CN[C@H](C(=O)N[C@H](C(=O)N(C)[C@H](/C=C(\C)C(=O)O)C(C)C)C(C)(C)SC)C(C)(C)c1ccccc1` gave an inhibition of 95%.
